Measurements published in patent US9963460B1, “Morphinan derivative” (dated 2018).

By UniProt entry, the sequences of proteins in these tests, tags left out.
UniProt P35372, whole entry: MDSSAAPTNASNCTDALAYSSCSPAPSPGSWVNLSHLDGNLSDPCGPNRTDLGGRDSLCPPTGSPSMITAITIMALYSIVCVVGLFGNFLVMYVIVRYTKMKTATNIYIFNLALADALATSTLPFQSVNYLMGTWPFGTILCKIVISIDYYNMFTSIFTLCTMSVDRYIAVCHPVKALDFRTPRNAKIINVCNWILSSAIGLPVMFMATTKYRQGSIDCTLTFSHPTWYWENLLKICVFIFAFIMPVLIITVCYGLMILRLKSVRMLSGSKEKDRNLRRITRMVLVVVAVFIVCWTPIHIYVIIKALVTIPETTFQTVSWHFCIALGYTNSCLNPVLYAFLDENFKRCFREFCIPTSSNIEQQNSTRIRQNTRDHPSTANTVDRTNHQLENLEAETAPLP
UniProt P41145, whole entry: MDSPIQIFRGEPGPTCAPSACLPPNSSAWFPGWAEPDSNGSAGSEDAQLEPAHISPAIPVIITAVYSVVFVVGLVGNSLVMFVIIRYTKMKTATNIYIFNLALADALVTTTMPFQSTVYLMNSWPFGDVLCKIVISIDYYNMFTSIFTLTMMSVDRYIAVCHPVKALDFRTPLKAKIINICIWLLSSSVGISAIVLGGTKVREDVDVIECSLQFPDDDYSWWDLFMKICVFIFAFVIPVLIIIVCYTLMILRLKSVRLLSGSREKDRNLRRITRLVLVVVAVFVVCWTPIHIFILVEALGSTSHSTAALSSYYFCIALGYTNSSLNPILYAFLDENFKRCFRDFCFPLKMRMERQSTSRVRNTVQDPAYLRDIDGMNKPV

What was measured:
δ opioid receptor = δ opioid receptor (Homo sapiens (Human), UniProt P41143); test: Opioid receptor binding test, [3H] DPDPE; settings: ratio of Ki values δ/κ
Experimental: (§1) Preparation of Cell Membrane Fraction Samples
(§2) Cell membrane fraction samples were prepared from Chinese Hamster Ovary cells (CHO cells) in which each opioid receptor type was stably expressed, respectively. Sufficient opioid receptor-stably expressed CHO cells secured by subculture were separated out by a trypsin treatment, and then formed into cell sediments by centrifugation. The resulting sediments were homogenized under ice cooling in an ice-cold tris buffer (pH 7.4) containing 50 mM tris-HCl, 5 mM MgCl2 and 1 mM EGTA, and then the suspension was centrifuged (48,000×g, 20 minutes, 4° C.) in a super high speed centrifuge. The resulting sediments were homogenized again in an ice-cold tris buffer (pH 7.4) containing 10% sucrose. […]
(§3) In an opioid receptor binding test, [^3H] […] The radioactivity on the glass filter was measured with the Microbeta 2 (PerkinElmer Co., Ltd.), and nonspecific binding was calculated from the difference in binding capacity between in the presence and absence of a nonradioactive ligand (μ: DAMGO, δ: DPDPE, κ: U-69, 593, each 10 μM). The equilibrium inhibition constant (Ki value) obtained by the opioid receptor binding test was calculated by applying an IC50 value obtained from the inverse S-shaped curve in the test to the Cheng and Prusoff equation (Ki=IC50/(I+L/Kd)) using GraphPad Prism 6 (GraphPad Software, Inc., CA, USA). […]

μ opioid receptor = μ opioid receptor (Homo sapiens (Human), UniProt P35372); test: Opioid receptor binding test, [3H] DAMGO; settings: ratio of Ki values μ/κ
Experimental: as §1, §2, §3

κ opioid receptor = κ opioid receptor (Homo sapiens (Human), UniProt P41145); test: Opioid receptor binding test, [3H] U-69,593; settings: read-out: Binding affinity (Ki, pM) κ; CHO cell membrane, [3H] U-69,593 2 nM
Experimental: as §1, §2, §3

| SMILES | κ-receptor selectivity (Ki value ratio) δ/κ (δ opioid receptor) | κ-receptor selectivity (Ki value ratio) μ/κ (μ opioid receptor) | Ki (κ opioid receptor) [pM] |
| --- | --- | --- | --- |
| CN(Cc1ccccc1)C(=O)C1=C[C@@]23CC[C@]1(O)[C@@H]1Oc4c(O)ccc5c4[C@@]12CCN(CC1CC1)[C@@H]3C5.Cl | 5.78 | 8.11 |  |
| CN(Cc1ccccc1)C(=O)C1=C[C@@]23CC[C@]1(O)[C@@H]1Oc4c(O)ccc5c4[C@@]12CCN(CC1CC1)[C@@H]3C5 |  |  | 2.06 |
